Results reported in patent publication US8637511B2, “Aminopyrimidines useful as kinase inhibitors” (Vertex Pharmaceuticals Incorporated, priority 2005, dated 2014).

Molecular target: T1, JAK3 (Homo sapiens, UniProt P52333)
T1 sequence (P52333 1-1124): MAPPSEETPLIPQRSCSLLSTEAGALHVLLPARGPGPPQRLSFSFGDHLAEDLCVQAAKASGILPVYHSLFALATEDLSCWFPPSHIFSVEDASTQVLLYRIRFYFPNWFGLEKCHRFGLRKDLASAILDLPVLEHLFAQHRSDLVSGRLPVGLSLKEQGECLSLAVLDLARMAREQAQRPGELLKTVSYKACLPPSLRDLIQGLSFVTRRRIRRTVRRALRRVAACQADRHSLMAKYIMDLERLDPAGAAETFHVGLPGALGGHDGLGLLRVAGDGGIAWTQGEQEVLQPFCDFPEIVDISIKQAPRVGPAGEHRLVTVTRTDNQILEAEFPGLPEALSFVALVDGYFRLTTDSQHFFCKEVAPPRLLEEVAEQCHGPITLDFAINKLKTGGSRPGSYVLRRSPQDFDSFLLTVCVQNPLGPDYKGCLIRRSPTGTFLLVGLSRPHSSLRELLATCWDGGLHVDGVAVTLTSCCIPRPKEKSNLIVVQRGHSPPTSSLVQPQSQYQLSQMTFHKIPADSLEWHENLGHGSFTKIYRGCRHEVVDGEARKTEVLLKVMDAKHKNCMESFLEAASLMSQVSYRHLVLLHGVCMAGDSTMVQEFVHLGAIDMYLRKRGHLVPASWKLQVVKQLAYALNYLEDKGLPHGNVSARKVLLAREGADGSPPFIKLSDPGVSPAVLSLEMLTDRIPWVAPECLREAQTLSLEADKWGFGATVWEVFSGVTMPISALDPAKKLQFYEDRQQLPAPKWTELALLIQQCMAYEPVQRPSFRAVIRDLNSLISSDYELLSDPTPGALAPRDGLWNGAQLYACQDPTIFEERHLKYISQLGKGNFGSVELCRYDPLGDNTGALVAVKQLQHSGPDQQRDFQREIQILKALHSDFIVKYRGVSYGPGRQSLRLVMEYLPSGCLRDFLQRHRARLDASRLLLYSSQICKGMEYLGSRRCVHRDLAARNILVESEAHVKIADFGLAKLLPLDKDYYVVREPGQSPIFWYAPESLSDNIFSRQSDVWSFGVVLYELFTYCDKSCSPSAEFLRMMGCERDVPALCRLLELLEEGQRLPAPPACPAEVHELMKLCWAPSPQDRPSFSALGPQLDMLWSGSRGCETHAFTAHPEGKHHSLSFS
Experiment: biochemical

Cc1cc(Nc2cc(N3CCC3)nc(Sc3ccc(NC(=O)c4ccccc4Cl)nc3)n2)[nH]n1 [Compound 207]
Ki: 10 to 500 nM
